Laboratory results: ChEMBL document CHEMBL4433262, “Synthesis and biological evaluation of novel benzo[c][1,2,5]thiadiazol-5-yl and thieno[3,2-c]- pyridin-2-yl imidazole derivatives as ALK5 inhibitors” (Bioorg Med Chem Lett, 2019)
Calls of active or inactive are those of the source. The rule behind the calls is not given here.

Experiments:
[1] = molecular target: T1, TGF-beta receptor type-1 (Homo sapiens) (UniProt P36897); test: Inhibition of ALK5 in human SPC-A1 cells assessed as reduction in TGFbeta1-induced Smad2 phosphorylation at 0.1 to 0.5 uM incubated for 36 hrs by Western blot analysis; assay type: cell-based
T1 sequence (whole entry): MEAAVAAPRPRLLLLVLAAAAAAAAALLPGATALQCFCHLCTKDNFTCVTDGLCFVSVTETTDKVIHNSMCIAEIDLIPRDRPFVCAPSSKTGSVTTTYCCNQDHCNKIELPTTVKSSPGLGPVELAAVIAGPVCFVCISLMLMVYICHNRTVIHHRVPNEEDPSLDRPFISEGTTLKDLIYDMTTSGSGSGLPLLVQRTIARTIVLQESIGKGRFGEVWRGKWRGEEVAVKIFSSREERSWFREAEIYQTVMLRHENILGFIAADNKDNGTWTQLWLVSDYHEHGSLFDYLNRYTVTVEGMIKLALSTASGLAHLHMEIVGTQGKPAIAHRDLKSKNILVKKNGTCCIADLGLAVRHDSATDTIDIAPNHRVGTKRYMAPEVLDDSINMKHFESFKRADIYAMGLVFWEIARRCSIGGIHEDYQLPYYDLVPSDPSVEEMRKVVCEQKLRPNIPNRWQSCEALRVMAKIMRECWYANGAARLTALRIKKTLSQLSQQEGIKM

[2] = molecular target: T1, TGF-beta receptor type-1 (Homo sapiens); test: Inhibition of ALK5 in human HepG2 cells assessed as reduction in TGFbeta1-induced Smad2 phosphorylation incubated for 36 hrs by Western blot analysis; assay type: cell-based

Compound: Cc1cccc(-c2nn3c(c2-c2ccnc4ccc(C(N)=O)cc24)CCC3)n1
- inhibition [1]: Active
- inhibition [2]: Dose-dependent effect
